Values of other authors in patent US10550080B2 (BRISTOL-MYERS SQUIBB COMPANY, priority 2016, dated 2020).

By UniProt entry, the sequences of proteins in these tests, tags left out.
UniProt Q15858, whole entry: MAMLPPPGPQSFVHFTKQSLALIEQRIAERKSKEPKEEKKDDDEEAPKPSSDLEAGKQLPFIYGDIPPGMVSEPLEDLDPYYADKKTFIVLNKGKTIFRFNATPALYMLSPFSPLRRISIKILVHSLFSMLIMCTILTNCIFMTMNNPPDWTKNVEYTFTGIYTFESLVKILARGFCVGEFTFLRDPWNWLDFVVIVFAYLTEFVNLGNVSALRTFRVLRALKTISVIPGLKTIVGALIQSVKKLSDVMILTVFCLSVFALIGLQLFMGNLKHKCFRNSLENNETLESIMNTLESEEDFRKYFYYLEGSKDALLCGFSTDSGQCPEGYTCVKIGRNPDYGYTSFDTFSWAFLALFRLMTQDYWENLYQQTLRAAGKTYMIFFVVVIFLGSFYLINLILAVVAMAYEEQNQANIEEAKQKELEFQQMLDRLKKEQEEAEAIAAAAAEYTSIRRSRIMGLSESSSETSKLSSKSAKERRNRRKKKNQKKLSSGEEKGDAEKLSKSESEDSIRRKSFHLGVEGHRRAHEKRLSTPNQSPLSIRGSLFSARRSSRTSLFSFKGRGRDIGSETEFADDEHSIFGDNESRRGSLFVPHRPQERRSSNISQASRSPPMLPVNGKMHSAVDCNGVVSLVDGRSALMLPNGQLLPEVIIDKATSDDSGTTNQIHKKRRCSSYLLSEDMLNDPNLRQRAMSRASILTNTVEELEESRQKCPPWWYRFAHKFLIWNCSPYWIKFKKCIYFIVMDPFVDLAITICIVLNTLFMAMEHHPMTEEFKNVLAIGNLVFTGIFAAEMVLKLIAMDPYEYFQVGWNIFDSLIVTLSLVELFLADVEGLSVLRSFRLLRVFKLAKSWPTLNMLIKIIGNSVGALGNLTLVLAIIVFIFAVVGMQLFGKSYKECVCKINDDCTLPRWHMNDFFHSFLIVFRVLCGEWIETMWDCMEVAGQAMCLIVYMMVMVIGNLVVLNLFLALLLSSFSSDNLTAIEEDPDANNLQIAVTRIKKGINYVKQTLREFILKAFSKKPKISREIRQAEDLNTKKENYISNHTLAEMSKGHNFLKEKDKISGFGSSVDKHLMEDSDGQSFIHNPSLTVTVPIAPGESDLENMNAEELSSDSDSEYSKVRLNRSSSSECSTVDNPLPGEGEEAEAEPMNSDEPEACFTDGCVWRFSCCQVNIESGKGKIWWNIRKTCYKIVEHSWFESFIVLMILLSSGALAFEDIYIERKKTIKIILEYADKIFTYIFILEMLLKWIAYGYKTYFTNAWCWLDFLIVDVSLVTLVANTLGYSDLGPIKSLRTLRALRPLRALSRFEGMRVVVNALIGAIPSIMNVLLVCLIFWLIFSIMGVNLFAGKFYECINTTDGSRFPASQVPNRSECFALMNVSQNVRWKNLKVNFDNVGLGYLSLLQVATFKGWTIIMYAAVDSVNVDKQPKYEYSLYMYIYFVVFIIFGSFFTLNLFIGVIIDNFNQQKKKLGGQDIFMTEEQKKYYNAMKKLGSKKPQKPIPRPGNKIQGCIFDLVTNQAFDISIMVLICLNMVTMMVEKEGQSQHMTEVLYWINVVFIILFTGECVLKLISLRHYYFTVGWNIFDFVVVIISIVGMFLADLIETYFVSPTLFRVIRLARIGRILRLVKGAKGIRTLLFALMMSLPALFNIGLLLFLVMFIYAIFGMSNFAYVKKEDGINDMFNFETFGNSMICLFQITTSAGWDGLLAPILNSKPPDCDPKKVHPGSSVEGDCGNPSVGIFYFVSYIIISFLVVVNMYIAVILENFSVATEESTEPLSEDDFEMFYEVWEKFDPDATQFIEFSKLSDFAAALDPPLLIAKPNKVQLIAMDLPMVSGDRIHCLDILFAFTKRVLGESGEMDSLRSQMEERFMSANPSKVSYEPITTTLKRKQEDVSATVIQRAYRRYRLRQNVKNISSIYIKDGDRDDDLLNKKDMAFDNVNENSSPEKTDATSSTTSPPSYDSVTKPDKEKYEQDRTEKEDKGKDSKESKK

Biological target: NaV1.7 (Homo sapiens (Human), UniProt Q15858)
Conditions: Schmalhofer et al. 2008; cited from earlier work

## ProTx-II
  selective for NaV1.7 over other NaV channels: approximately 100 fold
